Measured affinities in a library of Ab-14 heavy chain variants

Source: Li et al. 2023 (doi:10.1038/s41467-023-39022-2), MIT Lincoln Laboratory and A-Alpha Bio; data file from the FLAb repository.

The target is the same throughout: PDVDLGDISGINAS, from the HR2 region of SARS-CoV-2 spike.

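Designed CDR sequences, proposed from the first random library and measured here. Their group label is 14H_GP_HC (GP: Gaussian process model; HC: hill climbing; a sequence that several methods proposed may carry one label only). In AlphaSeq, yeast of one mating type display the scFv and yeast of the other type display the target. The frequency of each diploid, read from paired DNA barcodes, reflects how well the two displayed proteins bind. Scores were corrected for input abundance and mapped to Kd with protein pairs of known affinity run in the same pool. The assay was run in six technical replicates.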

Ab-14 is the parent antibody, in scFv form: VH, then the linker GGGGSGGGGSGGGGS, then VL. The light chain is unchanged in all variants.
VH: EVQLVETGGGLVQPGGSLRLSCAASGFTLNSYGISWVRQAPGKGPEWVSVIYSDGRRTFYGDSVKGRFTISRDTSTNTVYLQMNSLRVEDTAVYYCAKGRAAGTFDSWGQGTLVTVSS
VL: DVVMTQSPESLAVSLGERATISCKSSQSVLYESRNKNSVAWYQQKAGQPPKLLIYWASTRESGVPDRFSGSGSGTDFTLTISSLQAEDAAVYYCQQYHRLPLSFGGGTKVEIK

Variants are written as CDR1, CDR2 and CDR3 of the heavy chain (limits as in the source). Parent: GFTLNSYGIS, VIYSDGRRTFYGDSVK, GRAAGTFDS.
Values are log10 of the apparent Kd in nM; lower means stronger binding.
A pair that was not seen in that replicate is written "n.d."; this usually means weak binding, but a binder can also be missed.
Values of this round are not directly comparable with the first-round values of the same sequences.
The authors averaged sequences with at least three values out of six and counted those with two or fewer as poor binders.
Empty control strains, which show no peptide, gave a signal in 1% of pairings with all heavy chain designs; the median was 2.08 and 95% of these signals were weaker than 0.84. No background was subtracted. Also given: how often the same scFv was detected with the empty control strains, with their mean in brackets.
The parent sequence was in this pool as ten entries: three were never detected, three once, and four in most replicates, with averages from 0.34 to 2.37.

| CDR-H1 | CDR-H2 | CDR-H3 | log10 Kd, replicates | control signals |
|---|---|---|---|---|
| GFGLNQYGIS | VIYSDGRRTFYSDSVK | GRAAGTFDS | 1.71 -0.01 0.42 0.97 1.41 0.48 | 0/18 |
| GFPLNSYGIS | VIYSDGRRTFYKDSVK | GQLAGTFDS | 2.73 1.12 1.89 1.45 1.05 1.42 | 0/18 |
| GFTLNSYGIS | VIYADGRRTFYGDSVK | GQAAGTFQS | 0.59 0.36 n.d. 0.49 2.90 1.23 | 0/18 |
| GFWLNDYGIS | VIYADGRRTFYGDSVK | GSAAGTFDS | 0.06 0.29 0.08 0.02 -0.02 -0.07 | 0/18 |
| GFQLNDYGIS | VIYSDGRRTFYIDHVK | GNAAGTFDS | 0.92 0.87 1.27 1.09 1.44 0.78 | 2/18 (2.00) |
| GFDLNSYGIS | VIYSDGRRTFYSDSVK | GQAAVTFDS | n.d. n.d. n.d. n.d. n.d. n.d. | 0/18 |
| GFTLDSYGIS | VIYSDGRRTFYGDSVK | GRVAGTFDV | 1.00 1.19 0.48 1.08 0.89 0.90 | 0/18 |
| GFTLNDYGIS | VIYSDGRRTFYDDSVK | GKAAGTFDS | 0.68 0.36 0.47 0.26 0.22 0.66 | 0/18 |
| GFALNEYGIS | VIYADGRRTFYGDSVK | GGAAGTFDS | 0.25 -0.03 -0.50 -0.31 -0.32 -0.21 | 0/18 |
| GFTLNDYGIS | VIYSDGRRTFYIDHVK | GKAAGTFDS | n.d. n.d. n.d. n.d. n.d. 1.36 | 1/18 (0.03) |
| GFTLNEYGIS | VIYSDGRRTFYHDSVK | GRQAGTFDS | n.d. n.d. n.d. n.d. n.d. n.d. | 1/18 (2.12) |
| GFTLNSYGIS | VIYSDGMRTFYSDSVK | GRAAVTFDS | n.d. n.d. n.d. n.d. n.d. n.d. | 0/18 |
| GFTLNSYGIS | VIYSDGRRTFYGDSVK | GQLAGTFDD | -0.03 0.20 -0.20 0.15 -0.02 0.21 | 1/18 (2.03) |
| GFTLNEYGIS | VIYSDGRRTFYTDSVK | GREAGTFDM | -0.41 -0.14 -0.17 -0.40 -0.48 0.13 | 0/18 |
| GFTLNSYGIS | VIYSDGERTFYVDSVK | GRAAGTFDS | 1.23 1.78 n.d. 2.51 n.d. n.d. | 0/18 |
| GFDLNSYGIS | VIYSDGRRTFYGDSVK | GRNAGTFWS | n.d. n.d. n.d. n.d. n.d. n.d. | 0/18 |
| GFTLTSYGIS | VIYADGRRTFYGDSVK | GRAAGTFWS | n.d. n.d. n.d. n.d. n.d. n.d. | 0/18 |
| GFTLNEYGIS | VIYSDGRRTFYMDDVK | GEAAGTFKS | 0.85 n.d. 1.49 1.45 1.43 0.92 | 0/18 |
| GFTLNDYGIS | VIYSDGRRTFYGDSVK | GKHAGTFDS | 0.42 0.50 0.39 -0.20 0.29 0.64 | 0/18 |
| NFTLESYGIS | VIYSDGRRTFYDDSVK | GQLAGTFDS | n.d. 1.69 n.d. 1.52 n.d. n.d. | 0/18 |
| GFTLNSYGIS | VIYSDGERTFYTDSVK | GRAAGTFDS | 0.40 0.67 0.78 0.57 0.97 0.49 | 0/18 |
| GFWLNEYGIS | VIYSDGRRTQYIDSVK | GRAAGTFDS | 0.92 0.52 1.19 0.57 1.09 1.33 | 1/18 (1.66) |
| GFTLNSYGIS | VIYADGRRTFYGDQVK | GEAAGTFKS | n.d. n.d. n.d. n.d. n.d. n.d. | 0/18 |
| GFLLNDYGIS | VIYSDGRRTFYKDSVK | GKAAGTFDS | 1.23 0.70 1.47 1.33 1.02 1.19 | 0/18 |
| GFTLNEYGIS | VIYSDGRRTFYVDDVK | GRTAGTFDS | 0.27 0.06 0.48 0.08 0.12 0.31 | 2/18 (2.89) |
| GFDLNSYGIS | VIYSDGRRTFYGDSVK | GHAAGTFNS | n.d. n.d. 1.17 1.07 1.97 1.79 | 0/18 |
| GFDLNEYGIS | VIYSDGRRTFYGDAVK | GQAAGTFDS | 0.17 0.07 0.05 0.01 0.13 0.19 | 0/18 |
| GFTLNDYGIS | VIYSDGRRTFYHDSVK | GRTAGTFIS | 1.68 1.34 n.d. 3.04 n.d. n.d. | 0/18 |
| GFTLNEYGIS | VIYSDGRRTFYGDSVK | GRAAGTFKT | n.d. n.d. n.d. 2.21 n.d. n.d. | 0/18 |
| GFTLNSYGIS | VIYSDGRRTFYQDSVK | GTLAGTFDS | 0.66 1.21 0.93 1.19 0.58 1.08 | 0/18 |
| GFDLNSYGIS | VIYSDGRRTFYIDSVK | GKAAGTFDM | 0.06 -0.27 0.38 0.89 0.19 0.58 | 0/18 |

Picked from the list: the 2 lowest averages where every replicate gave a value.

{"CDR-H1": "GFTLNEYGIS", "CDR-H2": "VIYSDGRRTFYTDSVK", "CDR-H3": "GREAGTFDM", "log10 Kd, replicates": "-0.41 -0.14 -0.17 -0.40 -0.48 0.13", "control signals": "0/18"}
{"CDR-H1": "GFALNEYGIS", "CDR-H2": "VIYADGRRTFYGDSVK", "CDR-H3": "GGAAGTFDS", "log10 Kd, replicates": "0.25 -0.03 -0.50 -0.31 -0.32 -0.21", "control signals": "0/18"}